Measured values published in patent publication US6706716B2, “Compounds specific for the human α1d adrenergic receptor and uses thereof” (Synaptic Pharmaceutical Corporation, priority 1998, dated 2004).

Amino acid sequences for entries named in this document (tags omitted).
UniProt P35368, whole entry: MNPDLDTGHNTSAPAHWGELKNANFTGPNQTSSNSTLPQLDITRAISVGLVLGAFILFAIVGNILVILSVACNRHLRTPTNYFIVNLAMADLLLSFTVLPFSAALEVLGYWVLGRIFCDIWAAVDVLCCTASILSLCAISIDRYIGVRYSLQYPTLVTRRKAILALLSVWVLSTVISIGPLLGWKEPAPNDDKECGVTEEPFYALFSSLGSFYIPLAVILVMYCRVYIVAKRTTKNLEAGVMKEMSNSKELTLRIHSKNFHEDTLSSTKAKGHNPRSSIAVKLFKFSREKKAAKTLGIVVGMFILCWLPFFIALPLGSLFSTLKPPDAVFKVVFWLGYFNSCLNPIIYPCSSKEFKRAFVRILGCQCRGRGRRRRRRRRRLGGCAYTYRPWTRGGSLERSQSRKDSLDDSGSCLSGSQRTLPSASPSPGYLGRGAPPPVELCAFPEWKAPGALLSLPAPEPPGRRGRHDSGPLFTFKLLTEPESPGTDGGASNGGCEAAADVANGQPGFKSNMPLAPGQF

Molecular target: T1, human α1b adrenergic receptor (Homo sapiens, UniProt P35368)
T1 construct: The entire coding region of α1b (1563 bp); expressed in transfected cells
Test: Radioligand binding ([3H]prazosin) at cloned human α1b adrenergic receptor
Conditions: LM(tk-) cell membranes, read-out: Binding affinities (pKi) α1b (converted)
Experimental: The binding of a test compound to a receptor of interest was generally evaluated by competitve binding assays using membrane preparations derived from cells which expressed the receptor. First, conditions were determined which allowed measurement of the specific binding of a compound known to bind to the receptor. Then, the binding of the known compound to the receptor in membrane preparations was evaluated in the presence of several different concentrations of the test compound.
The binding properties of compounds at the different human receptors were determined in vitro using cultured cell lines that selectively express the receptor of interest. These cell lines were prepared by transfecting the cloned cDNA or cloned genomic DNA or constructs containing both genomic DNA and cDNA encoding the human receptors as described below.
α1b Human Adrenergic Receptor: The entire coding region of α1b (1563 bp), including 200 base pairs of 5′ untranslated sequence (5′ UT) and 600 bp of 3′ untranslated sequence (3′ UT), was cloned into the EcoRI site of pCEXV-3 eukaryotic expression vector. […]
Radioligand Binding Assays for α1 Human Adrenergic Receptors: Transfected cells from culture flasks were scraped into 5 ml of 5 mM Tris-HCl, 5 mM EDTA, pH 7.5, and lysed by sonication. […] Nonspecific binding was determined in the presence of 10 μM phentolamine. […]

- Ki: 158 nM
Compound: C[C@H](CN1CCN(c2cc(F)c(F)cc2F)CC1)N1C(=O)CC2(CCCC2)CC1=O [Compound 9, 8-{(1R)-2-[4-(2,4,5-Trifluorophenyl)piperazin-1-yl]-1-methylethyl}-8-azaspiro[4.5]decane-7,9-dione]
